These are literature values, as cited in US20180338982A1, “Cooperative Medication Combination Systems” (priority 2017, published 2018).

For this series the following is noted: Table 1, components of "Syncpress" (hypertension).

For `Cl.Clc1cccc(Cl)c1NC1=NCCN1` [Clonidine, Clonidine Hydrochloride], the Half-life is on record as 12 h.
